Curated experimental data: logP (octanol/water) values

The octanol-water partition coefficient is given as log10; larger values mean a more lipophilic compound.
"via" names the databases from which the curators took the value.

{"smiles": "COCCOCCOCCO[Si](C)(C)OCCOCCOCCOC", "name": "12,12-Dimethyl-2,5,8,11,13,16,19,22-octaoxa-12-silatricosane", "logP (octanol/water)": "-0.38", "via": "eChemPortal"}
{"smiles": "CC(C)Cc1ccccc1", "name": "Isobutylbenzene", "logP (octanol/water)": "4.68", "via": "OCHEM, eChemPortal"}
{"smiles": "CC(C)c1ccc2sc3ccccc3c(=O)c2c1", "name": "2-(Propan-2-yl)-9H-thioxanthen-9-one", "logP (octanol/water)": "5.59", "via": "eChemPortal"}
{"smiles": "CO[C@@H]1C[C@H](C)CC[C@H]1C(C)C", "logP (octanol/water)": "4.369", "via": "eChemPortal"}
{"smiles": "c1ccc(-c2noc(-c3cccs3)n2)cc1", "name": "3-Phenyl-5-(2-thienyl)-1,2,4-oxadiazole", "logP (octanol/water)": "4.13", "via": "eChemPortal"}
{"smiles": "OCCCCCCCCCO", "name": "1,9-Nonanediol", "logP (octanol/water)": "1.69", "via": "eChemPortal"}
{"smiles": "CCCCCCC=O", "name": "Heptanal", "logP (octanol/water)": "2.8", "via": "eChemPortal"}
{"smiles": "CCC(=O)OCC(C)(C)OC(C)C1CCCC(C)(C)C1", "stereo": "stereo not given", "logP (octanol/water)": "4.68", "via": "eChemPortal"}
{"smiles": "O=C(O)[C@H]1O[C@H](O)[C@H](O)[C@@H](O)[C@@H]1O", "name": "alpha-D-Glucuronic acid", "logP (octanol/water)": "-2.57", "via": "PubChem"}
{"smiles": "COc1ccc(N=Nc2c(O)ccc3ccccc23)c([N+](=O)[O-])c1", "name": "1-((4-Methoxy-2-nitrophenyl)azo)-2-naphthol", "logP (octanol/water)": "4.33", "via": "eChemPortal"}
{"smiles": "Clc1ccc2ncoc2c1", "name": "6-Chlorobenzo[d]oxazole", "logP (octanol/water)": "2.2", "via": "eChemPortal"}
{"smiles": "c1ccc(-c2nnc(-c3ccc(-c4nnc(-c5ccccc5)c(-c5ccccc5)n4)cc3)nc2-c2ccccc2)cc1", "logP (octanol/water)": "10.5", "via": "eChemPortal"}
{"smiles": "NCC1CCCC(CN)C1", "stereo": "stereo not given", "name": "1,3-Cyclohexanedimethanamine", "logP (octanol/water)": "0.73", "via": "OCHEM, eChemPortal"}
{"smiles": "Cc1ccc(S(=O)(=O)O)cc1.O=C(O)c1cccnc1", "name": "3-Pyridinecarboxylic acid, 4-methylbenzenesulfonate", "logP (octanol/water)": "0.36", "via": "OCHEM"}
{"smiles": "CCOC(=O)C(C)C", "name": "Ethyl isobutyrate", "logP (octanol/water)": "1.8", "via": "eChemPortal"}
{"smiles": "CC(C)CCC(C)C(C)O", "stereo": "stereo not given", "name": "2-Heptanol, 3,6-dimethyl-", "logP (octanol/water)": "3.47", "via": "eChemPortal"}
{"smiles": "Cc1ccncn1", "name": "Pyrimidine, 4-methyl-", "logP (octanol/water)": "0.16", "via": "OCHEM"}
{"smiles": "C=CCS(=O)(=O)[O-].[Na+]", "name": "2-Propene-1-sulfonic acid, sodium salt", "logP (octanol/water)": "-3.5", "via": "eChemPortal"}
{"smiles": "c1ccc(-c2cc3ccccc3[nH]2)cc1", "name": "1H-Indole, 2-phenyl-", "logP (octanol/water)": "4.21", "via": "OCHEM"}
{"smiles": "C=CCCCCCCCCCCCCCC", "name": "1-Hexadecene", "logP (octanol/water)": "8.063", "via": "OFMPub"}
{"smiles": "O=C(OCCOCCOCCOC(=O)c1ccccc1)c1ccccc1", "name": "Ethylenebis(oxyethylene) dibenzoate", "logP (octanol/water)": "3.2", "via": "OFMPub"}
{"smiles": "Nc1ccc2[nH]c(=O)[nH]c2c1", "name": "2H-Benzimidazol-2-one, 5-amino-1,3-dihydro-", "logP (octanol/water)": "-0.33", "via": "eChemPortal"}
{"smiles": "CC(=O)N[C@@H](C=O)[C@@H](O)[C@H](O)[C@H](O)CO", "name": "N-Acetylglucosamine", "logP (octanol/water)": "-2.1", "via": "PubChem"}
{"smiles": "CC(C=O)c1ccccc1", "stereo": "stereo not given", "name": "Hydratropaldehyde", "logP (octanol/water)": "1.96", "via": "eChemPortal"}
{"smiles": "NC1CCC1.NC1CCC1.[Cl-].[Cl-].[Pt+2]", "name": "Platinum(2+) chloride--cyclobutanamine (1/2/2)", "logP (octanol/water)": "0.36", "via": "OCHEM"}
{"smiles": "CCOC(=O)COC(=O)c1ccccc1C(=O)OCC", "name": "Ethyl phthalyl ethyl glycolate", "logP (octanol/water)": "2.2", "via": "eChemPortal"}
{"smiles": "N#Cc1ccc(C(c2ccc(C#N)cc2)n2cncn2)cc1", "name": "4,4'-(1H-1,2,4-Triazol-1-ylmethylene)dibenzonitrile", "logP (octanol/water)": "2.5", "via": "PubChem"}
{"smiles": "C=C(C)c1ccc(Cl)cc1", "name": "4-Chloro-alpha-methylstyrene", "logP (octanol/water)": "4.62", "via": "OCHEM"}
{"smiles": "CC(COc1ccccc1)N(CCCl)Cc1ccccc1", "stereo": "stereo not given", "name": "Phenoxybenzamine", "logP (octanol/water)": "4.7", "via": "PubChem"}

4 of these entries, quoted again:

{"smiles": "CC(C)CCC(C)C(C)O", "stereo": "stereo not given", "name": "2-Heptanol, 3,6-dimethyl-", "logP (octanol/water)": "3.47", "via": "eChemPortal"}
{"smiles": "CC(=O)N[C@@H](C=O)[C@@H](O)[C@H](O)[C@H](O)CO", "name": "N-Acetylglucosamine", "logP (octanol/water)": "-2.1", "via": "PubChem"}
{"smiles": "c1ccc(-c2noc(-c3cccs3)n2)cc1", "name": "3-Phenyl-5-(2-thienyl)-1,2,4-oxadiazole", "logP (octanol/water)": "4.13", "via": "eChemPortal"}
{"smiles": "CC(C)Cc1ccccc1", "name": "Isobutylbenzene", "logP (octanol/water)": "4.68", "via": "OCHEM, eChemPortal"}

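The OPERA project collected these measurements from public sources as training and test data for property models. The files give a single number for a compound and property, which may rest on several reports. Method, purity and exact conditions of the single measurements are not given. A value may pool stereoisomers or salt forms, and the file does not say which form was measured. Some entries may be limits or estimates that an upstream database listed as plain numbers.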

Data: OPERA 2.9 data sets, kmansouri/OPERA on GitHub.